According to patent publication US20130131088A1 (UNIVERSITY HEALTH NETWORK, priority 2010, published 2013):

Tested on: normal cells (PBSC1)
Details: combination of dipyridamole and statins at the highest concentrations assessed for the primary AML patient samples

## OCCN(CCO)c1nc(N2CCCCC2)c2nc(N(CCO)CCO)nc(N3CCCCC3)c2n1 [dipyridamole]
  toxicity to normal cells: not toxic
